Earlier results, collected in US20100184765A1, “Protein Kinase Inhibitors and Methods for Using Thereof” (IRM LLC, priority 2007, published 2010).

Sequences of proteins named here, by UniProt entry; tags and fusion partners are left off. Residues count along the entry.
UniProt P35968, 20-1356, species assumed: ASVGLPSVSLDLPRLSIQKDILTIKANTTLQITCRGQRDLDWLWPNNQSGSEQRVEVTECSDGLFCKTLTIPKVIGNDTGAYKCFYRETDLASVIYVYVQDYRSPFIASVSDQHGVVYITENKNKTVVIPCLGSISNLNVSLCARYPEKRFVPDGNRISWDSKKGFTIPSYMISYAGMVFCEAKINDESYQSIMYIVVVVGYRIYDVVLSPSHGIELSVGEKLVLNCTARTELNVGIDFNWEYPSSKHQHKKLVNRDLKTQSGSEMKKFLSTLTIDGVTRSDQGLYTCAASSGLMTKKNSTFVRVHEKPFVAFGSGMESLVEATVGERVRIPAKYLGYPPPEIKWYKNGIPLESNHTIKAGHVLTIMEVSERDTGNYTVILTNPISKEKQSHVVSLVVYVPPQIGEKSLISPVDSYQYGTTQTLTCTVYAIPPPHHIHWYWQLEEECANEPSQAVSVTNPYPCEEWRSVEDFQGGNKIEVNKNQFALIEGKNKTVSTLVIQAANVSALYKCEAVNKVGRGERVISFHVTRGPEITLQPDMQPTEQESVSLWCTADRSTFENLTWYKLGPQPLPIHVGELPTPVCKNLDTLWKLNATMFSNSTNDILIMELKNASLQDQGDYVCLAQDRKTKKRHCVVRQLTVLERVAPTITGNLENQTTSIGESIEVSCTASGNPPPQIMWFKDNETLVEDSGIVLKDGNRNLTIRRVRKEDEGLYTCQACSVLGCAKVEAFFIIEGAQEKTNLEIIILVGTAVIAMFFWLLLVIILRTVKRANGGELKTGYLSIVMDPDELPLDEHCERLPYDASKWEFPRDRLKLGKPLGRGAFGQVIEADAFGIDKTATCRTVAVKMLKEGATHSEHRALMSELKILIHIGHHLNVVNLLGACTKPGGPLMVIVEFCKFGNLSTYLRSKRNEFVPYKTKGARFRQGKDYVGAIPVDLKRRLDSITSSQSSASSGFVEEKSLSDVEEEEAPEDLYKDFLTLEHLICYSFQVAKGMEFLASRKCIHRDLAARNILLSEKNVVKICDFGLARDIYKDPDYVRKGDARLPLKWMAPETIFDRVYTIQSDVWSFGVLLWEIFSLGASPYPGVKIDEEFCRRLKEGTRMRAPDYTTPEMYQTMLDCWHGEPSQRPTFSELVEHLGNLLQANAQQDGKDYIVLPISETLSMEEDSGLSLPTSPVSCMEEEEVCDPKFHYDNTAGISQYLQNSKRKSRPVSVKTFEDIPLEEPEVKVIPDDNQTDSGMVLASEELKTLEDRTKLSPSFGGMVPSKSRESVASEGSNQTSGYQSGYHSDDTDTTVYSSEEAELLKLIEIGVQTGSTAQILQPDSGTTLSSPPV

Biological target: KDR (Homo sapiens, UniProt P35968)

VEGF
Kd: 0.075 nM
